Source: patent US8927500B2, “Peptidomimetic macrocycles” (Aileron Therapeutics, Inc., priority 2012, dated 2015)
Where two headings read alike, the source gives them in different places.

Amino acid sequences for entries named in this document (tags omitted). Residues count along the entry.
UniProt Q00987, 1-125: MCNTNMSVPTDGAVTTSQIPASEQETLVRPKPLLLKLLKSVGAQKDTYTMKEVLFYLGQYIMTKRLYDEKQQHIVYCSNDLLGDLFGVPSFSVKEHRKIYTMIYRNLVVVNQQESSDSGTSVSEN

Legend:
[1] = target: T1, MDMX (Homo sapiens, UniProt O15151); experiment: Competitive fluorescence polarization assay for MDMX; type: binding
T1 sequence (O15151 1-125): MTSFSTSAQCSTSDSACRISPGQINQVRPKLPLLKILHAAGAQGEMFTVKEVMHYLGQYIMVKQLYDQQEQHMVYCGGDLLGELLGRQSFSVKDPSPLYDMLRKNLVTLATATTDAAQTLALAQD

[2] = target: MDM2 (Homo sapiens, UniProt Q00987); experiment: Competitive fluorescence polarization assay for MDM2; type: binding; conditions: competitive FP assay
[3] = test system: p21; experiment: P21 ELISA assay in SJSA1 cells; type: cell-based, Human; conditions: for p21 0.3 uM: 0.3 uM peptide; for p21 1 uM: 1 uM peptide; for p21 3 uM: 3 uM peptide; for p21 10 uM: 10 uM peptide; for p21 30 uM: 30 uM peptide
[4] = test system: RKO cells; experiment: Cell viability assay (MTT), RKO; conditions: read-out: RKO EC50 (72 h)
[5] = competitive FP assay, read-out: IC50 (MDMX)
[6] = competitive FP assay, read-out: Ki (MDMX)

| Structure (SMILES) | IC50 [1, 5] | Ki [1, 6] | IC50 [2] | Ki [2] | other results |
| --- | --- | --- | --- | --- | --- |
| CC(=O)N[C@@H](Cc1c[nH]c2ccccc12)C(=O)N[C@H](C(=O)N[C@@H](Cc1ccccc1)C(=O)N[C@]1(C)CCCCCCC=CCCC[C@@](C)(C(=O)N[C@@H](CO)C(=O)N[C@@H](C)C(=O)N[C@@H](C)C(=O)N[C@H](C)C(N)=O)NC(=O)[C@H](CC(C)C)NC(=O)[C@H](CCC(N)=O)NC(=O)[C@H](CO)NC(=O)[C@H](Cc2c[nH]c3ccccc23)NC(=O)[C@H](Cc2ccc(O)cc2)NC(=O)[C@H](Cc2ccccc2)NC1=O)[C@@H](C)O (single isomer, unassigned) [compound 104] | 100 to 1000 nM | 10 to 100 nM | 10 to 100 nM | < 10 nM |  |
| CC(=O)N[C@@H](CC(C)C)C(=O)N[C@H](C(=O)N[C@@H](Cc1ccccc1)C(=O)N[C@]1(C)CCCCCCC=CCCC[C@@](C)(C(=O)N[C@@H](C)C(=O)N[C@@H](C)C(=O)NC(C)(C)C(=O)N[C@H](C(N)=O)C(C)C)NC(=O)[C@H](CC(C)C)NC(=O)[C@H](CCC(N)=O)NC(=O)[C@H](C)NC(=O)[C@H](Cc2c[nH]c3ccccc23)NC(=O)[C@H](Cc2ccc(O)cc2)NC(=O)[C@H](C)NC1=O)[C@@H](C)O (single isomer, unassigned) [compound 24] | 100 to 1000 nM | 10 to 100 nM |  |  |  |
| CCCC[C@H](NC(=O)[C@H](CCC(N)=O)NC(=O)[C@H](Cc1c[nH]cn1)NC(=O)[C@]1(C)CCCC=CCCCCCC[C@@](C)(NC(=O)[C@H](Cc2ccccc2)NC(=O)[C@@H](NC(=O)[C@H](CC(C)C)NC(C)=O)[C@@H](C)O)C(=O)N[C@@H](C)C(=O)N[C@@H](Cc2ccc(O)cc2)C(=O)N[C@@H](Cc2c[nH]c3ccccc23)C(=O)N[C@@H](C)C(=O)N[C@@H](CCC(N)=O)C(=O)N[C@@H](CC(C)C)C(=O)N1)C(=O)N[C@@H](C(N)=O)C(C)C (single isomer, unassigned) [compound 46] | 10 to 100 nM | 10 to 100 nM | 10 to 100 nM | < 10 nM |  |
| CC(=O)N[C@@H](CC(C)C)C(=O)N[C@H](C(=O)N[C@@H](Cc1ccccc1)C(=O)N[C@]1(C)CCCCCCC=CCCC[C@@](C)(C(=O)N[C@@H](C)C(=O)N[C@@H](C)C(=O)NC(C)(C)C(=O)N[C@H](C(N)=O)C(C)C)NC(=O)[C@H](CC(C)C)NC(=O)[C@H](CCC(N)=O)NC(=O)[C@H](C)NC(=O)[C@H](Cc2c[nH]c3ccccc23)NC(=O)[C@H](Cc2ccc(O)cc2)NC(=O)[C@H](C)NC1=O)[C@@H](C)O (single isomer, unassigned) [compound 23] | 100 to 1000 nM | 10 to 100 nM |  |  |  |
| CC(=O)N[C@@H](CC(C)C)C(=O)N[C@H](C(=O)N[C@@H](Cc1ccccc1)C(=O)N[C@]1(C)CCCCCCC=CCCC[C@@](C)(C(=O)N[C@@H](C)C(=O)N[C@@H](C)C(=O)N[C@@H](C)C(=O)N[C@@H](C)C(=O)N[C@@H](C)C(=O)N[C@@H](C)C(=O)N[C@H](C)C(N)=O)NC(=O)[C@H](CC(C)C)NC(=O)[C@H](CCC(N)=O)NC(=O)[C@H](C)NC(=O)[C@H](Cc2c[nH]c3ccccc23)NC(=O)[C@H](Cc2ccc(O)cc2)NC(=O)[C@H](C)NC1=O)[C@@H](C)O (single isomer, unassigned) [compound 317] |  |  |  |  | IC50 ([1]; read-out: IC50 (MDMX), competitive FP assay): 100 to 1000 nM; Ki ([1]; read-out: Ki (MDMX), competitive FP assay): 10 to 100 nM; p21 0.3 uM [3]: 551; p21 1 uM [3]: 624; p21 3 uM [3]: 776; p21 10 uM [3]: 1367; p21 30 uM [3]: 1076 |
| CC(=O)N[C@@H](CC(C)C)C(=O)N[C@H](C(=O)N[C@@H](Cc1ccccc1)C(=O)N[C@]1(C)CCCCCCC=CCCC[C@@](C)(C(=O)N[C@@H](C)C(=O)N[C@@H](C)C(=O)N[C@@H](C)C(=O)N[C@@H](C)C(=O)N[C@@H](C)C(=O)N[C@@H](C)C(=O)N[C@H](C)C(N)=O)NC(=O)[C@H](CC(C)C)NC(=O)[C@H](CCC(N)=O)NC(=O)[C@H](C)NC(=O)[C@H](Cc2c[nH]c3ccccc23)NC(=O)[C@H](Cc2ccc(O)cc2)NC(=O)[C@H](C)NC1=O)[C@@H](C)O (single isomer, unassigned) [compound 316] |  |  |  |  | IC50 ([1]; IC50 (MDMX), competitive FP assay): 100 to 1000 nM; Ki ([1]; Ki (MDMX), competitive FP assay): 10 to 100 nM; EC50 [4]: < 5000 nM; p21 0.3 uM [3]: 1319; p21 1 uM [3]: 1718; p21 3 uM [3]: 2848; p21 10 uM [3]: 2918; p21 30 uM [3]: 2540 |
| CC(=O)N[C@@H](CC(C)C)C(=O)N[C@H](C(=O)N[C@@H](Cc1ccccc1)C(=O)N[C@]1(C)CCCCCCC=CCCC[C@@](C)(C(=O)N[C@@H](CO)C(=O)N[C@@H](C)C(=O)N[C@@H](CC(C)C)C(N)=O)NC(=O)[C@H](CC(C)C)NC(=O)[C@H](CCC(N)=O)NC(=O)[C@H](C)NC(=O)[C@H](Cc2c[nH]c3ccccc23)NC(=O)[C@H](Cc2ccc(O)cc2)NC(=O)[C@H](C)NC1=O)[C@@H](C)O [compound 4] |  |  |  |  | EC50 [4]: < 5000 nM; p21 3 uM [3]: 317; p21 10 uM [3]: 3049; p21 30 uM [3]: 3257 |

Now from value to molecule, other results behind:

| IC50 [1, 5] | Ki [1, 6] | IC50 [2] | Ki [2] | Structure (SMILES) | other results |
| --- | --- | --- | --- | --- | --- |
| 100 to 1000 nM | 10 to 100 nM | 100 to 1000 nM | < 10 nM | CC(=O)N[C@@H](CC(C)C)C(=O)N[C@H](C(=O)N[C@@H](Cc1ccccc1)C(=O)N[C@]1(C)CCCCCCC=CCCC[C@@](C)(C(=O)N[C@@H](C)C(=O)N[C@H](C(=O)N[C@@H](CCC(N)=O)C(N)=O)C(C)C)NC(=O)[C@H](CC(C)C)NC(=O)[C@H](CCC(N)=O)NC(=O)[C@H](C)NC(=O)[C@H](Cc2c[nH]c3ccccc23)NC(=O)[C@H](Cc2ccc(O)cc2)NC(=O)[C@H](C)NC1=O)[C@@H](C)O (single isomer, unassigned) [compound 111] |  |
| 100 to 1000 nM | 10 to 100 nM | 100 to 1000 nM | < 10 nM | CC(=O)N[C@@H](CC(C)C)C(=O)N[C@H](C(=O)N[C@@H](Cc1ccccc1)C(=O)N[C@]1(C)CCCCCCC=CCCC[C@@](C)(C(=O)N[C@@H](C)C(=O)N[C@H](C(=O)N[C@@H](CCC(N)=O)C(N)=O)C(C)C)NC(=O)[C@H](CC(C)C)NC(=O)[C@H](CCC(N)=O)NC(=O)[C@H](C)NC(=O)[C@H](Cc2c[nH]c3ccccc23)NC(=O)[C@H](Cc2ccc(O)cc2)NC(=O)[C@H](C)NC1=O)[C@@H](C)O (single isomer, unassigned) [compound 110] |  |
| 100 to 1000 nM | 10 to 100 nM | 10 to 100 nM | < 10 nM | CC(=O)N[C@@H](CC(C)C)C(=O)N[C@H](C(=O)N[C@@H](Cc1ccccc1)C(=O)N[C@]1(C)CCCCCCC=CCCC[C@@](C)(C(=O)N[C@@H](C)C(=O)N[C@H](C(=O)NCC(N)=O)C(C)C)NC(=O)[C@H](CC(C)C)NC(=O)[C@H](CCC(N)=O)NC(=O)[C@H](C)NC(=O)[C@H](Cc2c[nH]c3ccccc23)NC(=O)[C@H](Cc2ccc(O)cc2)NC(=O)[C@H](C)NC1=O)[C@@H](C)O (single isomer, unassigned) [compound 108] |  |
| 100 to 1000 nM | 10 to 100 nM | 100 to 1000 nM | 10 to 100 nM | CC(=O)N[C@@H](CC(C)C)C(=O)N[C@H](C(=O)N[C@@H](Cc1ccccc1)C(=O)N[C@]1(C)CCCCCCC=CCCC[C@@](C)(C(=O)N[C@@H](CO)C(=O)N[C@@H](C)C(=O)N[C@H](C)C(N)=O)NC(=O)[C@H](CC(C)C)NC(=O)[C@H](CCC(N)=O)NC(=O)[C@H](C)NC(=O)[C@H](Cc2c[nH]c3ccccc23)NC(=O)[C@H](Cc2ccc(O)cc2)NC(=O)[C@H](C)NC1=O)[C@@H](C)O (single isomer, unassigned) [compound 112] |  |
|  |  | < 10 nM | < 10 nM | CC(=O)N[C@@H](CC(C)C)C(=O)N[C@H](C(=O)N[C@@H](Cc1ccccc1)C(=O)N[C@]1(C)CCCCCCC=CCCC[C@@](C)(C(=O)N[C@@H](C)C(=O)N[C@@H](C)C(=O)N[C@@H](C)C(=O)N[C@@H](C)C(=O)N[C@H](C)C(N)=O)NC(=O)[C@H](CCC(C)C)NC(=O)[C@H](CCC(N)=O)NC(=O)[C@H](C)NC(=O)[C@H](Cc2c[nH]c3ccccc23)NC(=O)[C@H](Cc2ccc(O)cc2)NC(=O)[C@H](C)NC1=O)[C@@H](C)O (single isomer, unassigned) [compound 313] |  |
|  |  | < 10 nM | < 10 nM | CC(=O)N[C@@H](CC(C)C)C(=O)N[C@H](C(=O)N[C@@H](Cc1ccccc1)C(=O)N[C@]1(C)CCCCCCC=CCCC[C@@](C)(C(=O)N[C@@H](C)C(=O)N[C@@H](C)C(=O)N[C@@H](C)C(=O)N[C@@H](C)C(=O)N[C@H](C)C(N)=O)NC(=O)[C@H](CCC(C)C)NC(=O)[C@H](CCC(N)=O)NC(=O)[C@H](C)NC(=O)[C@H](Cc2c[nH]c3ccccc23)NC(=O)[C@H](Cc2ccc(O)cc2)NC(=O)[C@H](C)NC1=O)[C@@H](C)O (single isomer, unassigned) [compound 314] |  |
|  | 10 to 100 nM |  |  | CC(=O)N[C@@H](CC(C)C)C(=O)N[C@H](C(=O)N[C@@H](Cc1ccccc1)C(=O)N[C@]1(C)CCCCCCC=CCCC[C@@](C)(C(=O)N[C@@H](C)C(=O)N[C@@H](C)C(=O)N[C@@H](C)C(=O)N[C@@H](C)C(=O)NC(C)(C)C(=O)N[C@H](C)C(N)=O)NC(=O)[C@H](CC(C)C)NC(=O)[C@H](CCC(N)=O)NC(=O)[C@H](C)NC(=O)[C@H](Cc2c[nH]c3ccccc23)NC(=O)[C@H](Cc2ccc(O)cc2)NC(=O)[C@H](CCC(=O)O)NC1=O)[C@@H](C)O (single isomer, unassigned) [compound 566] |  |
|  | 10 to 100 nM |  |  | CC(=O)N[C@@H](CC(C)C)C(=O)N[C@H](C(=O)N[C@@H](Cc1ccccc1)C(=O)N[C@]1(C)CCCCCCC=CCCC[C@@](C)(C(=O)N[C@@H](C)C(=O)N[C@@H](C)C(=O)N[C@@H](C)C(=O)N[C@@H](C)C(=O)NC(C)(C)C(=O)N[C@H](C)C(N)=O)NC(=O)[C@H](CC(C)C)NC(=O)[C@H](CCC(N)=O)NC(=O)[C@H](C)NC(=O)[C@H](Cc2c[nH]c3ccccc23)NC(=O)[C@H](Cc2ccc(O)cc2)NC(=O)[C@H](CCC(=O)O)NC1=O)[C@@H](C)O (single isomer, unassigned) [compound 565] |  |
